The source made the active and inactive calls. The calls are words filed in the database; no cut-off is given here.
What was measured:
[1] = target: T1, Beta-2 adrenergic receptor (Homo sapiens, UniProt P07550); assay: Binding affinity to N-terminal FLAG-tagged C-terminal His-10-tagged human beta2 adrenoceptor expressed in insect Sf9 cells by surface plasmon resonance analysis in presence of dodecyl maltoside
[2] = target: T1, Beta-2 adrenergic receptor; assay: Antagonist activity at human beta2 adrenoceptor containing C-terminus of V2 vasopressin receptor expressed in HEK293 cells assessed as inhibition of isoproterenol-induced beta arrestin recruitment at 10 uM after 15 to 18 hrs by luciferase reporter gene assay; type: functional, cell-based
[3] = target: T1, Beta-2 adrenergic receptor; assay: Agonist activity at human beta2 adrenoceptor containing C-terminus of V2 vasopressin receptor expressed in HEK293 cells assessed as stimulation of beta arrestin recruitment after 15 to 18 hrs by luciferase reporter gene assay; type: functional, cell-based
[4] = target: Beta-1 adrenergic receptor (Homo sapiens) (UniProt P08588); assay: Displacement of [125I]-Cyanopindolol from human beta1 adrenoceptor expressed in HEK293 cells after 90 mins by gamma counting analysis; type: cell-based
[5] = target: T1, Beta-2 adrenergic receptor; assay: Displacement of [125I]-Cyanopindolol from human beta2 adrenoceptor expressed in HEK293 cells after 90 mins by gamma counting analysis; type: cell-based
[6] = target: T1, Beta-2 adrenergic receptor; conditions: Sf9
[7] = target: T1, Beta-2 adrenergic receptor; assay: Antagonist activity at human beta2 adrenoceptor expressed in HEK293 cells assessed as inhibition of isoproterenol-induced cAMP production at 10 uM after 5 mins by luciferase reporter gene assay; type: functional, cell-based
[8] = target: T1, Beta-2 adrenergic receptor; assay: Agonist activity at human beta2 adrenoceptor expressed in HEK293 cells assessed as stimulation of cAMP production after 5 mins by luciferase reporter gene assay; type: functional, cell-based

Chains of the proteins cited; added tags and fusions are not shown.
UniProt P08588, whole entry, looked up: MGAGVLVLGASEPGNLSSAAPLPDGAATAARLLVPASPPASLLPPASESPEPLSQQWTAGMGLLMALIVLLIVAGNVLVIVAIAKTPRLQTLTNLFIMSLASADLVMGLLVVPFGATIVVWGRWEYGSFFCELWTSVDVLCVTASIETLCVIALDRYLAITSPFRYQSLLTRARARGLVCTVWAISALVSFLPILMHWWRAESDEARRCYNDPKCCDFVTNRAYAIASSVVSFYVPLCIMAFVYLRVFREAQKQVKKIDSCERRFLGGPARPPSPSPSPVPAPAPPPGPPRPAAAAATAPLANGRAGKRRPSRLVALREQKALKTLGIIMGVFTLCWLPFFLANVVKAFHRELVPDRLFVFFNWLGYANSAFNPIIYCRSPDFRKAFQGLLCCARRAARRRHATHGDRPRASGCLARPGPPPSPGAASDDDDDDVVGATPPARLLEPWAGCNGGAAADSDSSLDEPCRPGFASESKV

Structure (SMILES): Cc1cc(N2CCNCC2)c2ccccc2n1
- Activity [1]: Active
- inhibition [2]: Active
- Activity [3]: inactive
- Kic [4]: 963 nM
- Kic [5]: 343 nM
- Ka [6]: 1.16 ×10⁶ /M/s
- inhibition [7]: Active
- Activity [8]: inactive

From ChEMBL document CHEMBL2440021, “Discovery of β2 Adrenergic Receptor Ligands Using Biosensor Fragment Screening of Tagged Wild-Type Receptor” (ACS Med Chem Lett, 2013)
